Results on one compound are retold here after ChEMBL document CHEMBL1275402, “Virtual screening to identify novel antagonists for the G protein-coupled NK3 receptor” (J Med Chem, 2010).

Protein sequences, listed by entry. Tags and fused reporters are not part of them.
UniProt P29371, whole entry: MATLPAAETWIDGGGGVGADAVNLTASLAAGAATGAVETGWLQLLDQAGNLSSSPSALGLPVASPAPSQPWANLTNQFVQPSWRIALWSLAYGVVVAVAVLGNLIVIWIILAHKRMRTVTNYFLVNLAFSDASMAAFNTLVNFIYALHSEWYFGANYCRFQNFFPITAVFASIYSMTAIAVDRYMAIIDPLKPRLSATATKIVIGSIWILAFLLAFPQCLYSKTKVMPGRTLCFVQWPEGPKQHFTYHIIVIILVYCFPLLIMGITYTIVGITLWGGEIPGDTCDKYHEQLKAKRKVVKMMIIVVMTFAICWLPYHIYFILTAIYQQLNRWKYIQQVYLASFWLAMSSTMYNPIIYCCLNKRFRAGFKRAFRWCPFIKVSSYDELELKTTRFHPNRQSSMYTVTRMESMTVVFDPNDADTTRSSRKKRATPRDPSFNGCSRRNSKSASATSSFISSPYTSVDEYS

The target in this experiment is Neuromedin-K receptor (Homo sapiens, UniProt P29371). The experiment can be described thus: Antagonist activity against human NK3 receptor expressed in HEK293 cells assessed as inhibition of increase of intracellular calcium level by fluorescent plate-reader analysis. In kind it is functional, cell-based.

The term IC50 denotes the midpoint of a concentration-inhibition curve. Regarding `CC[C@H](NC(=O)c1c(O)c(-c2ccccc2)nc2ccccc12)c1ccccc1` [TALNETANT], the IC50 was found to be 6.1 nM.
